Consider 46 compounds from US20220324865A1 (Bayer Aktiengesellschaft, priority 2018, published 2022).

Protein sequences, listed by entry. Tags and fused reporters are not part of them.
UniProt P43115, whole entry: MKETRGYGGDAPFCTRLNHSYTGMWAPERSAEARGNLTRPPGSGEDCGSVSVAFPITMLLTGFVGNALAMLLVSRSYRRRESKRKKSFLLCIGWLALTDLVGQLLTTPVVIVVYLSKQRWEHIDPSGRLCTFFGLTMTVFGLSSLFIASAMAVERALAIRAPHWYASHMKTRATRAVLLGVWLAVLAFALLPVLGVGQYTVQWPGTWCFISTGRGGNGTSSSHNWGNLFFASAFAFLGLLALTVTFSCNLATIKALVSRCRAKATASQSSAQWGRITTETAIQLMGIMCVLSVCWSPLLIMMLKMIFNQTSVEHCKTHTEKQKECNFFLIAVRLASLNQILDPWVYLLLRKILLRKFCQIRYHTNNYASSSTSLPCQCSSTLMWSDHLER

One assay addresses human EP3 receptor (Homo sapiens, UniProt P43115). As to the kind of experiment: Cellular in vitro assay for determining EP3 receptor activity (human EP3 cell line, sulprostone-stimulated calcium luminescence). Particulars: read-out: EP3 CHO mtCLY ANTAG IC50; CHO cells expressing human EP3 and mitochondrial Clytin; antagonist mode, sulprostone at EC50. How it is done: B-1. Cellular In Vitro Assay for Determining EP3 Receptor Activity
The identification of antagonists of the EP3 receptor from humans and rats as well as the quantification of the activity of the compounds of the invention was carried out using recombinant cell lines. These cell lines originally derive from a hamsters ovary epithelial cell (Chinese Hamster Ovary, CHO K1, ATCC: American Type Culture Collection, Manassas, Va. 20108, USA). The test cell lines constitutively express the human or rat EP3 receptors. The naturally Gαi-coupled human and rat EP3 receptors were stably co-transfected with Gα16 into cells that are also stably transfected with a mitochondrial form of the calcium-sensitive photoproteins Clytin (human EP3) or Photina (rat EP3), which, after reconstitution with the cofactor coelenterazine, emit light when there are increases in free calcium concentrations (Nature 1992, 358, 325-327; Gene 1995, 153 (2), 273-274). The resulting EP3 receptor cells react to stimulation of the recombinantly expressed EP3 receptors by the agonist sulprostone with intracellular release of calcium ions, which can be quantified by the resulting photoprotein luminescence. Antagonists inhibit the receptor signaling, leading to reduced calcium release and luminescence. The bioluminescence of the cell lines is detected using a suitable luminometer (Trends Pharmacol. Sci. 1996, 17, 235-237).
Human and Rat EP3 Cell Lines:
On the day before the assay, the cells are plated out in culture medium (OptiMEM, 1% FCS, 2 mM glutamine, 10 mM HEPES, 5 μg/ml coelenterazine) in 384-well microtiter plates and kept in a cell incubator (96% humidity, 5% v/v CO2, 37° C.). On the day of the assay, test compounds in various concentrations are placed for 10 minutes in the wells of the microtiter plate before the agonist sulprostone at EC50 concentration is added. The resulting light signal is measured immediately in a luminometer. All concentrations are measured in quadruples.
As a reminder, the IC50 is the concentration that gives 50% inhibition. In the case of `Cc1ccc(-c2cn3nc(C(=O)NCCNCC(F)F)c(C4CC4)c3c(=O)[nH]2)cc1F`, the IC50 stood at 3.2 nM.

On to `Cc1ccc(-c2cn3nc(C(=O)N[C@H](CN4CC[C@@H](F)C4)c4ccccc4)cc3c(=O)[nH]2)cc1C`, for which the IC50 was determined as 4.35 nM.

Turning to `Cc1cc(-c2cn3nc(C(=O)N[C@@H](c4ccc(F)cc4)[C@@H](O)C(F)(F)F)c(C(F)(F)F)c3c(=O)[nH]2)ccc1Cl`, the half-maximal inhibitory concentration (IC50) worked out at 0.7 nM.

Take `COC[C@@H](C)NC(=O)c1nn2cc(-c3ccc(C)c(F)c3)[nH]c(=O)c2c1C1CC1`: the IC50 turned out to be 9.1 nM.

Take `Cc1ccc(-c2cn3nc(C(=O)NC(c4ccc(F)cc4)C4(O)CC4)c(C(F)(F)F)c3c(=O)[nH]2)cc1F` (single isomer, unassigned) [6-151]: the half-inhibitory concentration (IC50) is 36 nM.

`Cc1ccc(-c2cn3nc(C(=O)NC4CCN(C5CC5)C4)c(C4CC4)c3c(=O)[nH]2)cc1C` (single isomer, unassigned) [6-449]: the IC50 came to 2.3 nM.

Turning to `Cc1cc(-c2cn3nc(C(=O)N[C@@H](c4ccc(F)cc4)C(F)(F)CO)c(C4CC4)c3c(=O)[nH]2)c(F)cc1Cl`, the IC50 turned out to be 3.1 nM.

`CC(C)c1c(C(=O)N[C@@H](c2ccc(F)cc2)C(C)(C)O)nn2cc(-c3ccc(Cl)c(F)c3)[nH]c(=O)c12`: the IC50 stood at 1.63 nM.

For `Cc1ccc(-c2cn3nc(C(=O)N[C@H](c4ccc(F)cc4)C(C)(C)O)c(C4CC4)c3c(=O)[nH]2)cc1Cl`, the concentration for half-maximal inhibition (IC50) came out at 2.65 nM.

Turning to `CC(CO)NC(=O)c1nn2cc(-c3ccc4c(c3)OCCO4)[nH]c(=O)c2c1C1CC1` (single isomer, unassigned) [6-469], the half-maximal inhibitory concentration (IC50) amounted to 3.35 nM.

Regarding `CN1CC(NC(=O)c2nn3cc(-c4cccc(Cl)c4)[nH]c(=O)c3c2C2CC2)(c2ccc(F)cc2)C1`, the IC50 is 19 nM.

Turning to `CCCc1c(C(=O)N[C@@H](c2ccc(F)cc2)C(C)(C)O)nn2cc(-c3ccc(C)c(C)c3)[nH]c(=O)c12`, the IC50 amounted to 0.69 nM.

On to `O=C(NC(CO)C(F)(F)F)c1nn2cc(-c3ccc(Cl)c(F)c3)[nH]c(=O)c2c1C1CC1` (single isomer, unassigned) [6-93], for which the IC50 turned out to be 12 nM.

In the case of `Cc1ccc(-c2cn3nc(C(=O)NC4CCN(CC(F)(F)F)C4)c(C4CC4)c3c(=O)[nH]2)cc1C` (single isomer, unassigned) [6-461], the IC50 is 1.65 nM.

On to `COc1ccc(C2(NC(=O)c3nn4cc(-c5ccc6c(c5)OCCO6)[nH]c(=O)c4c3C(F)(F)F)CN(C)C2)cc1`, for which the IC50 was found to be 8.2 nM.

Consider `Cc1ccc(-c2cn3nc(C(=O)N[C@@H](c4ccc(F)cc4)C(C)(C)O)c(C4CC4)c3c(=O)[nH]2)nc1C`, for which the IC50 is 1.15 nM.

`Cc1ccc(-c2cn3nc(C(=O)N[C@H](CN4CC[C@H](F)C4)c4ccccc4)cc3c(=O)[nH]2)cc1C`: the IC50 was determined as 2.45 nM.

For the compound `Cc1cc(-c2cn3nc(C(=O)N[C@@H](C)C(C)(C)C)c(C(F)(F)F)c3c(=O)[nH]2)ccc1Cl`, the IC50 was found to be 1.1 nM.

Turning to `CC(C)(O)C(NC(=O)c1nn2cc(-c3ccc4ccccc4c3)[nH]c(=O)c2c1C(F)(F)F)c1ccc(C(F)(F)F)cc1` (stereo not shown), the IC50 was found to be 2.75 nM.

Take `CC(C)c1c(C(=O)NC2(c3ccc(F)cc3)CN(C)C2)nn2cc(-c3ccc(Cl)cc3)[nH]c(=O)c12`: the 50% inhibitory concentration (IC50) came out at 4 nM.

`Cc1ccc(-c2cn3nc(C(=O)NC(c4ccc(F)cc4)C4(O)CC4)c(C(F)(F)F)c3c(=O)[nH]2)cc1F` (single isomer, unassigned) [6-150]: the IC50 is 1.02 nM.

For the compound `Cc1ccc(-c2cn3nc(C(=O)NC4(c5ccc(F)cc5)CN(C)C4)c(Cl)c3c(=O)[nH]2)cc1C`, the IC50 was determined as 2.5 nM.

For `Cc1cc(-c2cn3nc(C(=O)N[C@@H](C)CO)c(C4CC4)c3c(=O)[nH]2)ccc1Cl`, the IC50 came to 8.3 nM.

As to `COCC(NC(=O)c1nn2cc(-c3ccc(Cl)c(C)c3)[nH]c(=O)c2c1C(F)(F)F)c1ccccc1` (single isomer, unassigned) [6-209], the IC50 is 1.13 nM.

Regarding `CC(C)(O)C(NC(=O)c1nn2cc(-c3ccc(Cl)c(F)c3)[nH]c(=O)c2c1C1CC1)c1ccc(F)c(F)c1` (single isomer, unassigned) [6-99], the IC50 was found to be 1.12 nM.

Take `COCc1c(C(=O)N[C@@H](c2ccc(F)cc2)C(C)(C)O)nn2cc(-c3ccc4c(c3)OCCO4)[nH]c(=O)c12`: the IC50 is 3.1 nM.

Consider `Cc1ccc(-c2cn3nc(C(=O)NCC(O)C(F)(F)F)c(C(F)(F)F)c3c(=O)[nH]2)cc1F` (single isomer, unassigned) [6-139], for which the IC50 was 20 nM.

As for `O=C(NC(CN1CCOCC1)c1ccc(F)cc1)c1nn2cc(-c3ccc4ccccc4c3)[nH]c(=O)c2c1C(F)(F)F` (single isomer, unassigned) [6-503], the IC50 was 4.7 nM.

With `Cc1cc(-c2cn3nc(C(=O)NC(C#N)CO)c(C4CC4)c3c(=O)[nH]2)ccc1Cl` (stereo not shown), the IC50 came out at 3.5 nM.

With `Cc1ccc(-c2cn3nc(C(=O)N[C@@H](C)c4ccc(C(F)(F)F)cc4)cc3c(=O)[nH]2)cc1C`, the IC50 turned out to be 6.9 nM.

In the case of `Cc1cc(-c2cn3nc(C(=O)N[C@@H](c4ccc(F)cc4)C(F)(F)CO)c(C4CC4)c3c(=O)[nH]2)ccc1F`, the 50% inhibitory concentration (IC50) turned out to be 1.4 nM.

Regarding `Cc1ccc(-c2cn3nc(C(=O)NCC(O)C(F)(F)F)c(C(F)(F)F)c3c(=O)[nH]2)cc1C` (single isomer, unassigned), the IC50 was 4.85 nM.

With `Cc1ccc(-c2cn3nc(C(=O)NC(c4ccc(F)cc4)C4(O)CC4)c(C(F)(F)F)c3c(=O)[nH]2)cc1Cl` (single isomer, unassigned) [6-176], the IC50 came to 4 nM.

On to `Cc1ccc(-c2cn3nc(C(=O)N[C@@H](c4ccc(F)cc4)C(C)(C)O)c(C4CC4)c3c(=O)[nH]2)cc1Cl`, for which the half-inhibitory concentration (IC50) came to 2.25 nM.

Regarding `O=C(NC(CN1CCOCC1)c1ccc(F)cc1)c1nn2cc(-c3ccc4ccccc4c3)[nH]c(=O)c2c1C(F)(F)F` (single isomer, unassigned) [6-504], the IC50 turned out to be 1.35 nM.

Regarding `O=C(NCC(O)C(F)(F)F)c1nn2cc(-c3ccc(Cl)c(F)c3)[nH]c(=O)c2c1C1CC1` (single isomer, unassigned) [6-90], the IC50 was determined as 8.65 nM.

For the compound `Cc1ccc(-c2cn3nc(C(=O)NCC(O)C(F)F)c(C(F)(F)F)c3c(=O)[nH]2)cc1Cl` (single isomer, unassigned) [6-183], the IC50 amounted to 3 nM.

Regarding `Cc1ccc(-c2cn3nc(C(=O)NCCNCC(F)F)c(C4CC4)c3c(=O)[nH]2)cc1Cl`, the IC50 turned out to be 1.2 nM.

Consider `Cc1cc(-c2cn3nc(C(=O)N[C@@H](c4ccc(F)cc4)C(F)(F)CO)c(C4CC(F)(F)C4)c3c(=O)[nH]2)ccc1Cl`, for which the IC50 is 4.3 nM.

Regarding `Cc1cc(-c2cn3nc(C(=O)NC(C)CN4CCOCC4)c(C4CC4)c3c(=O)[nH]2)ccc1Cl` (single isomer, unassigned) [6-328], the IC50 is 9.3 nM.

As to `Cc1ccc(-c2cn3nc(C(=O)N[C@@H](c4ccc(F)cc4)C(F)(F)CO)cc3c(=O)[nH]2)cc1C`, the IC50 stood at 1.6 nM.

On to `O=C(NC(CO)C(F)(F)F)c1nn2cc(-c3ccc(Cl)c(Cl)c3)[nH]c(=O)c2c1C1CC1` (single isomer, unassigned) [6-419], for which the IC50 amounted to 1.5 nM.

Take `Cc1ccc(-c2cn3nc(C(=O)NCC(N)C(F)(F)F)c(C4CC4)c3c(=O)[nH]2)cc1C` (stereo not shown): the IC50 was found to be 0.49 nM.

As to `Cc1ccc(-c2cn3nc(C(=O)N[C@@H](CO)C(C)C)c(C4CC4)c3c(=O)[nH]2)cc1Cl`, the IC50 amounted to 1.8 nM.

With `COC[C@@H](C)NC(=O)c1nn2cc(-c3ccc(C)c(Cl)c3)[nH]c(=O)c2c1C1CC1`, the IC50 came to 1.07 nM.

Still in this assay, the particulars now being: read-out: EP3 CHO mtCLY ANTAG IC50; CHO cells expressing human EP3 and mitochondrial Clytin; antagonist mode, sulprostone at EC50; tested form: formate.
For `CCN1CCC(NC(=O)c2nn3cc(-c4ccc5ccccc5c4)[nH]c(=O)c3c2C(F)(F)F)(C(F)(F)F)C1` (stereo not shown), the IC50 turned out to be 4.37 nM.
